One experiment has as its target TAK1 (Homo sapiens (Human), UniProt O43318). Nature of the experiment: Invitrogen Select Screening kinase assay. It is filed as biochemical. The following applies: in vitro.
For another experiment, the target named is HCK (Homo sapiens (Human), UniProt P08631). Briefly: Invitrogen Select Screening kinase assay. The format is biochemical. Particulars: in vitro, read-out: HCK IC50 (nM) Inv.

Protein sequences, listed by entry. Tags and fused reporters are not part of them. Lines headed by an entry give the natural chain unless they say otherwise; changes in a name come on top.
UniProt O43318: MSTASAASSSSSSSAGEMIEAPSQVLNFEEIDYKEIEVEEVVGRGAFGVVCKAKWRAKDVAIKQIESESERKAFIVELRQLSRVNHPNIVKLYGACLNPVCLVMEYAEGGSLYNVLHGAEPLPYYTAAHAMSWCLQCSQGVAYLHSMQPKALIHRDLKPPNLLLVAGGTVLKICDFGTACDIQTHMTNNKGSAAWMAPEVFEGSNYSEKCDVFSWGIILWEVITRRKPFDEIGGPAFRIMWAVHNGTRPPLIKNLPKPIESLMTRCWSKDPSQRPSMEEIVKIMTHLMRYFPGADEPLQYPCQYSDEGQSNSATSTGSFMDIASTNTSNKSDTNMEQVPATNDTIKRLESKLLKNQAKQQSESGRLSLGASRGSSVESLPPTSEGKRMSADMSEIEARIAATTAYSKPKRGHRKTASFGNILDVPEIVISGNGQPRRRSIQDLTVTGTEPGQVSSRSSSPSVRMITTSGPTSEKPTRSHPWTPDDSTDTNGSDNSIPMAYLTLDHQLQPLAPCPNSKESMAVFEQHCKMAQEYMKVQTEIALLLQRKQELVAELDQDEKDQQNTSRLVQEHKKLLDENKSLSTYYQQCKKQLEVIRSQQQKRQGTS
UniProt P08631: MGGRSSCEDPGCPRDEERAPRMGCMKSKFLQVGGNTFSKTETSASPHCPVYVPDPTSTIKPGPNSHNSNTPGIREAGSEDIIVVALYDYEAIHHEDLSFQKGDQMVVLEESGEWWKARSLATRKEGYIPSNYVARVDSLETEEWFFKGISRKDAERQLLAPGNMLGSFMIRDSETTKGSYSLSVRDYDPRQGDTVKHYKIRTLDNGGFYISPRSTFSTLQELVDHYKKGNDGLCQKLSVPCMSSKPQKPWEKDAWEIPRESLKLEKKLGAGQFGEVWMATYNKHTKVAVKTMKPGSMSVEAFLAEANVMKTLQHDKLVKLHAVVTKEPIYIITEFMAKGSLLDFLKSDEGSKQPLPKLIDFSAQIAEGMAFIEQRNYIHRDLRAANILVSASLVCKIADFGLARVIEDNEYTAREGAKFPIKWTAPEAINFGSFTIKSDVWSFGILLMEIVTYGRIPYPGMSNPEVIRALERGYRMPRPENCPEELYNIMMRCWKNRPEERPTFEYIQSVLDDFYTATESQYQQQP

Where only a bound is given, the exact number is not on record here.

In the case of `CCN1CCN(Cc2ccc(C(=O)Nc3ccc(C)c(NC(=O)c4cncc(-c5cccs5)c4)c3)cc2C(F)(F)F)CC1` [I-1, N-(5-(4-((4-ethylpiperazin-1-yl)methyl)-3-(trifluoromethyl)benzamido)-2-methylphenyl)-5-(thiophen-2-yl)nicotinamide], the IC50 at TAK1 was found to be 8210 nM; on HCK, 7.4 nM.

For `Cc1ccc(C(=O)Nc2cccc(C(C)(C)C#N)c2)cc1NC(=O)c1cncc(-c2cccs2)c1` [I-6, N-(5-((3-(2-cyanopropan-2-yl)phenyl)carbamoyl)-2-methylphenyl)-5-(thiophen-2-yl)nicotinamide], the IC50 against TAK1 was above 3330 nM; at HCK, 29.9 nM.
